{"source": "patent US20120196933A1", "about": "“MEXILETINE PRODRUGS” (priority 2010, published 2012)", "key": {"patients": {"test_system": "patients", "settings": "especially at higher doses; cited from earlier work"}, "[1]": {"test": "Systemic availability of mexiletine in the dog from mexiletine prodrugs (oral gavage)", "type": "in vivo", "settings": "1 mg/kg mexiletine free base, plasma mexiletine", "description": "Test substances (i.e., mexiletine, and various mexiletine amino acid prodrugs) were administered by oral gavage to groups of two or some cases five dogs. The characteristics of the test animals are set out in Table 6.\nBlood samples were taken at various times after administration and submitted to analysis for parent drug using a validated LC-MS-MS assay. Pharmacokinetic parameters derived from the plasma bioanalytical data were determined using Win Nonlin."}, "in vivo": {"test": "in vivo", "settings": "rat, oral 5 mg mexiletine free base equivalents/kg; for Tmax: Tmax of mexiletine", "description": "Test substances (i.e., mexiletine & mexiletine glutamic acid amide) were administered by oral gavage to groups of five male Sprague Dawley rats.\nBlood samples were taken at various times after administration and submitted to analysis for the prodrug and parent drug using a validated LC-MS-MS assay. Pharmacokinetic parameters derived from the plasma analytical were determined using Win Nonlin."}, "[2]": {"test": "Systemic availability of mexiletine in the cynomolgus monkey from mexiletine prodrugs (oral gavage)", "type": "in vivo", "settings": "1 mg/kg mexiletine free base, plasma mexiletine", "description": "Test substances (i.e., mexiletine, and various mexiletine amino acid prodrugs) were administered by oral gavage to groups of two and, in one case, five male cynomolgus monkeys. Blood samples were taken at various times after administration and submitted to analysis for the parent drug using a validated LC-MS-MS assay. Pharmacokinetic parameters derived from the plasma bioanalytical data were determined using Win Nonlin."}, "[3]": {"settings": "in vivo; cited from earlier work"}, "[4]": {"settings": "individual animals, hydrochloride"}}, "note": "Values joined by “and” are separate entries in the source; they are usually repeats but may differ in a detail not shown here. Equal entries are not always repeated. Marks after values point to notes of the source that are not given here."}
{"smiles": "Cc1cccc(C)c1OCC(C)N.Cl", "note": "(racemic) [Mexiletine hydrochloride, (rac)-1-(2,6-dimethylphenoxy)-2-propanamine hydrochloride]", "values": [{"measurement": "Patients with adverse GI events", "setting": "patients", "result": "up to 38%"}, {"measurement": "T50% Cmax", "setting": "[1]", "result": 6.25, "unit": "h"}, {"measurement": "AUC", "setting": "in vivo; male, Sprague Dawley, in vivo, po, 5 mg, AUC of mexiletine, mean, mean (values with extrapolated AUC > 25% omitted)", "result": 14.3, "unit": "ng·h/mL"}, {"measurement": "Cmax", "setting": "in vivo; male, Sprague Dawley, in vivo, po, 5 mg, Cmax of mexiletine, mean", "result": 7.29, "unit": "ng/mL"}, {"measurement": "Tmax", "setting": "in vivo; male, Sprague Dawley, in vivo, po, 5 mg, median, median value", "result": 30, "unit": "min"}, {"measurement": "Tmax", "setting": "in vivo; male, Sprague Dawley, in vivo, po, 5 mg, individual animals", "result": 30, "unit": "min"}, {"measurement": "half-life", "setting": "in vivo; male, Sprague Dawley, in vivo, po, 5 mg, t 1/2 of mexiletine, mean, ln2/mean k", "result": 72, "unit": "min"}, {"measurement": "AUC of mexiletine", "setting": "in vivo; [4]", "result": "15.9* ng · h/mL and 15.0 ng · h/mL and 24.0* ng · h/mL and 10.6 ng · h/mL and 17.4 ng · h/mL"}, {"measurement": "Cmax of mexiletine", "setting": "in vivo; [4]", "result": "2.68 ng/mL and 7.33 ng/mL and 11.0 ng/mL and 5.26 ng/mL and 10.2 ng/mL"}, {"measurement": "T>50% Cmax of mexiletine", "setting": "in vivo; [4]", "result": "4.0 h and 1.5 h (2×) and 1.3 h and 1.2 h"}, {"measurement": "Tmax of mexiletine", "setting": "in vivo; [4]", "result": 15, "unit": "min"}, {"measurement": "t 1/2 of mexiletine", "setting": "in vivo; [4]", "result": "4.3* h and 1.4* h and 1.1 h"}, {"measurement": "T>50% Cmax of mexiletine, median", "setting": "in vivo; median value, hydrochloride", "result": "1.5 h and 1.5^a h"}, {"measurement": "T50% Cmax", "setting": "[2]", "result": 3.94, "unit": "h"}, {"measurement": "Half life", "setting": "[3]", "result": 720, "unit": "min"}]}
